The entries are a selection whose mix differs from that of the whole data set. Results filed as inconclusive are left out. Some salts and complexes are drawn in separate pieces, as the source files them; their charges need not balance. Active and inactive are the calls of the source. Calls come from the whole dose curve; as a rule, active = well fitted curve in the direction sought with a large enough effect in the polarisation (not every such curve was filed as active); inconclusive = small, poorly fitted or top-dose-only effect, or effect the other way, or a change in a side signal; inactive = no such curve, though single readings can be large or run the other way; the % refers to the polarisation.
Test: qHTS Assay for Inhibitors Targeting the Menin-MLL Interaction in MLL Related Leukemias: Competition With Fluorescein Labeled MLL-derived Peptide; note: % of control where 0% means no effect
Details: Fluorescence polarization, fluorescein-MLL peptide displacement from menin; at 61.4 µM (top of the series)
For `Fc1ccccc1NC1CCN(Cc2ccccc2)CC1`, the FP activity change was inactive: -0.877%.
With `CCN1CCC(Nc2cccc(F)c2)CC1` the FP activity change was inactive: 2.51%.
In the case of `CN(C)c1ccc(C(=O)NCC2(N3CCCCC3)CCCCC2)cc1`, the FP activity change was inactive: -2.6%.
In the case of `CCOc1ncccc1C(=O)NCC1(N2CCOCC2)CCCCC1`, the FP activity change was inactive: 2.23%.
For `CN1CCC(Nc2ccc(F)c(Cl)c2)CC1`, the FP activity change was inactive: -3.06%.
For `CC(C)(C)OC(=O)N1CCC(Nc2ccccc2)CC1`, the FP activity change was inactive: 1.8%.
With `O=C(O)C1(Nc2ccccc2)CCN(Cc2ccccc2)CC1` the FP activity change was inactive: -4.04%.
With `CCCOc1ccc(C(=O)NCC2(N(C)C)CCCCC2)cc1` the FP activity change was inactive: 2.47%.
For `COc1cccc(C(=O)N(c2cc(C)cc(C)c2)C2CCN(C(=O)OC(C)(C)C)CC2)c1`, the FP activity change was inactive: -6.42%.
With `COc1cc(OC)cc(C(=O)NCC2(N3CCOCC3)CCCCC2)c1` the FP activity change was inactive: 6.76%.
For `CCC(CO)(C(=O)OC1CN2CCC1CC2)c1ccccc1` (stereo not drawn), the FP activity change was inactive: 2.22%.
In the case of `CN1CCC(Nc2ccc(Cl)cc2)CC1`, the FP activity change was inactive: -2.66%.
With `CCCOc1ccc(C)cc1CN(CCCl)CCCl` the FP activity change was inactive: 9.75%.
With `COc1ccc(C(=O)NCC2(N3CCOCC3)CCCCC2)cc1OC` the FP activity change was inactive: 3.28%.
With `CCOC(=O)N1CCC(Nc2ccc(C)cc2)CC1` the FP activity change was inactive: -1.65%.
For `N/C(=N\O)c1c(N)no[n+]1[O-]`, the FP activity change was inactive: 1.67%.
With `O=C(OC1CN2CCC1CC2)C1c2ccccc2C=Cc2ccccc21` (stereo not drawn) the FP activity change was inactive: 2.95%.
In the case of `O=C(O)c1cccc(Nc2c([N+](=O)[O-])cc([N+](=O)[O-])cc2[N+](=O)[O-])c1`, the FP activity change was inactive: -1.58%.
In the case of `N#Cc1ccc(C(=O)NCC2(N3CCCCC3)CCCCC2)cc1`, the FP activity change was inactive: -2.04%.
In the case of `CC(C)(C)OC(=O)N1CCC(N(C(=O)c2ccccc2)c2ccc(Cl)cc2)CC1`, the FP activity change was inactive: 5.13%.
For `CCOC(=O)C(CC)C1=NC(C)(C)Cc2ccccc21.O=[N+]([O-])c1cc([N+](=O)[O-])c(O)c([N+](=O)[O-])c1` (stereo not drawn), the FP activity change was inactive: 1.14%.
For `CN(C)C1(CNC(=O)c2cccc(C#N)c2)CCCCC1`, the FP activity change was inactive: 0.977%.
In the case of `c1ccc(CN2CCC(Nc3ccccc3)CC2)cc1`, the FP activity change was inactive: -0.276%.
With `CCCN1CCC(Nc2cc(OC)cc(OC)c2)CC1` the FP activity change was inactive: -10.3%.
For `O=C(NCC1(N2CCCCC2)CCCCC1)c1ccc(OC(F)F)cc1`, the FP activity change was inactive: -5.96%.
In the case of `CCN1CCC(Nc2ccc(Cl)cc2)CC1`, the FP activity change was inactive: 2.25%.
With `N#CC1(Nc2ccccc2)CCN(CCc2ccccc2)CC1` the FP activity change was inactive: -0.481%.
With `O=C(NCC1(N2CCCCC2)CCCCC1)c1cccc([N+](=O)[O-])c1` the FP activity change was inactive: 2.34%.
With `O=[N+]([O-])c1cc([N+](=O)[O-])c(NCC2CCS(=O)(=O)C2)c([N+](=O)[O-])c1` (stereo not drawn) the FP activity change was inactive: -1.54%.
For `O=C(NCC1(N2CCCCC2)CCCCC1)c1cccc(C(F)(F)F)c1`, the FP activity change was inactive: -0.252%.
With `O=C(NCC1(N2CCOCC2)CCCCC1)c1cc(=O)[nH]c2ccccc12` the FP activity change was inactive: -2.01%.
With `COc1cc(C(=O)NCC2(N3CCCCC3)CCCCC2)ccc1OC(F)F` the FP activity change was inactive: 3.05%.
In the case of `COc1ccc(NC2CCN(C(=O)OC(C)(C)C)CC2)cc1`, the FP activity change was inactive: 0.537%.
For `CN1CCN(CCOC(=O)C(O)(c2ccccc2)c2ccccc2)CC1`, the FP activity change was inactive: 5.98%.
In the case of `CC(C)c1ccc(NC2CCN(C(=O)OC(C)(C)C)CC2)cc1`, the FP activity change was inactive: -2.13%.
With `COc1ccc(CN(CCCl)CCCl)cc1Cl` the FP activity change was inactive: -1.26%.
In the case of `CN(C)c1cccc(C(=O)NCC2(N3CCCCC3)CCCCC2)c1`, the FP activity change was inactive: -0.727%.
With `O=[N+]([O-])c1cc([N+](=O)[O-])c(OC2CCCCC2O)c([N+](=O)[O-])c1` (stereo not drawn) the FP activity change was inactive: -3.1%.
In the case of `COc1cc(OC)c(C(=O)NCC2(N(C)C)CCCCC2)cc1OC`, the FP activity change was inactive: -2.78%.
For `O=C(OC1CN2CCC1CC2)c1ccc([N+](=O)[O-])cc1` (stereo not drawn), the FP activity change was inactive: 0.612%.
In the case of `COc1ccc2c(c1O)-c1c(O)c(OC)cc3c1[C@H](C2)[N+](C)(C)CC3.O=[N+]([O-])c1cc([N+](=O)[O-])c([O-])c([N+](=O)[O-])c1[O-]`, the FP activity change was inactive: -11.9%.
In the case of `CCCOc1ccc(C(=O)NCC2(N(C)C)CCCCC2)cc1OC`, the FP activity change was inactive: -17.2%.
In the case of `COc1ccc(C(=O)NCC2(N3CCCCC3)CCCCC2)cc1`, the FP activity change was inactive: 7.36%.
In the case of `CC(C)(C)OC(=O)N1CCC(N(C(=O)c2ccccc2)c2ccc(F)cc2)CC1`, the FP activity change was inactive: -2.87%.
For `COc1ccc(C(=O)NCC2(N3CCCCC3)CCCCC2)c(OC)c1OC`, the FP activity change was inactive: 9.89%.
In the case of `O=C(NCC1(N2CCCCC2)CCCCC1)c1ccc(=O)[nH]c1`, the FP activity change was inactive: 4.94%.
For `Cc1cc(C)cc(N(C(=O)c2ccccc2)C2CCN(C(=O)OC(C)(C)C)CC2)c1`, the FP activity change was inactive: -2.18%.
In the case of `O=C(NCC1(N2CCOCC2)CCCCC1)c1cc2ccccc2o1`, the FP activity change was inactive: 1.52%.
For `N#CC1(Nc2ccccc2)CCN(Cc2ccccc2)CC1`, the FP activity change was inactive: 0.811%.
For `O=C(OC1CN2CCC1CC2)C1c2ccccc2Oc2ccccc21` (stereo not drawn), the FP activity change was inactive: -0.276%.
For `CCOC(=O)N1CCC(Nc2ccc(OC)cc2)CC1`, the FP activity change was inactive: -8.12%.
For `CCOc1ccc(C)cc1CN(CCCl)CCCl`, the FP activity change was inactive: 1.36%.
For `O=C(NCC1(N2CCCCC2)CCCCC1)c1ccc(F)cc1`, the FP activity change was inactive: -5.81%.
For `CCOC(=O)N1CCC(Nc2ccc(F)cc2)CC1`, the FP activity change was inactive: 1.8%.
With `COc1ccc(NC2CCN(CCc3ccccc3)CC2)c(OC)c1` the FP activity change was inactive: -1.35%.
For `CCOC(=O)N1CCC(Nc2cccc(C)c2)CC1`, the FP activity change was inactive: -2.59%.
In the case of `COc1cc(C(=O)NCC2(N(C)C)CCCCC2)ccc1OC(F)F`, the FP activity change was inactive: 0.631%.
With `Cc1ccc(OCC(C)C)c(CN(CCCl)CCCl)c1` the FP activity change was inactive: 11.8%.
